{"source": "ChEMBL document CHEMBL1821572", "about": "“Discovery of a novel series of selective HCN1 blockers” (Bioorg Med Chem Lett, 2011)", "species": "Homo sapiens", "assay": "Selectivity for human HCN1 over human HCN4", "note": "Some tests of the compounds listed are not included; inactive here does not mean inactive elsewhere."}
{"smiles": "CCOc1ccccc1C(=O)NCC1(N2CCCCC2)CCCCC1", "values": [{"measurement": "Selectivity ratio", "value": 10}]}
